The record followed here is US20240165110A1.

Sequences of proteins named here, by UniProt entry; tags and fusion partners are left off.
UniProt P41145, whole entry: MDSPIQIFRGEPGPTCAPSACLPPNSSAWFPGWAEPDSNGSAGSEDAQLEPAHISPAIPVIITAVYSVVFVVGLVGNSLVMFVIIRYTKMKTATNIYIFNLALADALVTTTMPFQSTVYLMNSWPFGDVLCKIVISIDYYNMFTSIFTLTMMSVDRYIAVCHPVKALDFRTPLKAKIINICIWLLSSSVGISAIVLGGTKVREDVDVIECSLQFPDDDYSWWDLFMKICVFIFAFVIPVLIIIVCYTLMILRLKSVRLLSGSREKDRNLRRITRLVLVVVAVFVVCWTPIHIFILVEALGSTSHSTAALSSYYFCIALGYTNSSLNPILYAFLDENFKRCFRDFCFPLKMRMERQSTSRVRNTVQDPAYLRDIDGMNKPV

For the assay, the target named is kappa opioid receptor (KOR) (Homo sapiens, UniProt P41145). Kind of assay: KOR inhibition (inhibitor constant Ki and % inhibition).

`COC(=O)C(Cc1cccc(OC)c1C)NC(=O)CNCc1ccccc1` (centres unmarked) displayed a Ki of 192 nM.
Turning to `COC(=O)C(Cc1cccc(C)c1I)NC(=O)CNCc1ccccc1` (centres unmarked), the Ki was determined as 122 nM.
